Test system: HaCaT cells (human skin keratinocyte cell line)
Settings: 1 mM 5-ALA; 405 nm + 545 nm and 405 nm + 635 nm

## NCC(=O)CCC(=O)O [5-ALA, δ-aminolevulinic acid]
  amount of irradiation at which a synergistic effect is obtained: ≥ 0.9 J/cm^2

From patent US20180193659A1, “PHOTODYNAMIC THERAPY LIGHT IRRADIATING DEVICE AND LIGHT IRRADIATING METHOD” (Public University Corporation Nagoya City University, priority 2015, published 2018)
